Measured values published in US20100068147A1, “DENGUE DIAGNOSIS AND TREATMENT” (Agency for Science , Technology and Research, priority 2006, published 2010).

Tested on: dengue virus TSV01
Test: Plaque assay, wild type and viperin over expressing A549 cells with IFN-β pre-treatment, infected with TSV01
Type: cell-based, dengue virus serotype 2
Conditions: 12 hrs pre-treatment with IFN-β 500 U/ml in combination with viperin overexpression; A549, MOI 1, 48 hrs; FIG. 7E
Experimental: For plaque assay, BHK-21 cells are cultured ON in 24 well plates before media is removed and serial dilutions (10-fold) of cell culture supernatants added to individual wells. Plates are incubated for 1 hr before media is aspirated and replaced with 0.5 ml of 0.8% methyl-cellulose medium (with 2% FBS). Plates are then incubated for 5 days before the media is removed and cells fixed in 4% formaldehyde for 20 min then rinsed in water and stained with crystal violent for 20 min and rinsed again. Plaques are counted manually and concentrations of plaque forming units per ml (pfu/ml) of the sample cell culture supernatant calculated.
Cells are cultured ON in 6 well plates before IFN-β (IMCB, Singapore), at a final concentration of 500 U/ml, is added to each well while control wells remained untreated. Twelve hours post IFN-β-treatment, cell culture medium is removed, replaced with fresh medium, and the cells infected with dengue virus (TSV01; MOI 1) for 48 hrs before cell culture supernatants are removed and the number of plaque forming units determined by plaque assay.

B1: IFN-β: interferon beta (IMCB, Singapore), 500 U/ml pre-treatment of A549 cells (protein, UniProt P01574 22-187, looked up)
Interferon beta: MSYNLLGFLQRSSNFQCQKLLWQLNGRLEYCLKDRMNFDIPEEIKQLQQFQKEDAALTIYEMLQNIFAIFRQDSSSTGWNETIVENLLANVYHQINHLKTVLEEKLEKEDFTRGKLMSSLHLKRYYGRILHYLKAKEYSHCAWTIVRVEILRNFYFINRLTGYLRN
anti-viral effect (plaque forming units): greatest anti-viral effect
